Patent US20020147237A1, “Preservation of bodily protein” (priority 2001, published 2002)

Experiments:
Details in all cases: Group 2; 60 min; Dosage 1: α-ketoglutarate 2.85 μmol·kg^−1·min^−1 i.v. alone
hind leg skeletal muscle = test: hind leg turnover (plasma flow times arterio-venous difference; negative = release, positive = uptake); assay type: in vivo, piglets
Method: (§1) Food was withheld from the animals for twelve hours prior to the experiment, but they had free access to water. […] In addition, all animals were given an intravenous bolus of morphine 1 mg·kg^-1 and, following tracheotomy, pancuronium bromide 0.3 mg·kg^-1. […] After the last measurements, still under anaesthesia, the animals were killed with an overdose of potassium chloride. After induction of anaesthesia the animals were tracheotomised and ventilated through an 8 mm endotracheal tube (Mallincrodt Laboratories, Athlone, Ireland) with a Servo ventilator […] ([…], Solna, Sweden). […] The body temperature was kept stable by means of a thermostat controlled heating pad and warmed intravenous infusions. After skin incisions, a catheter was introduced in the left external jugular vein and advanced to the right hepatic vein under fluoroscopic control. Its position was confirmed by a contrast injection. The right external jugular vein was used for placement of a central venous catheter and a 7F pulmonary artery thermodilution catheter. An arterial catheter was inserted in a subclavian branch and advanced to a central position. Through a small suprapubic incision, a urinary catheter was placed in the bladder. A cutdown was made to place an ultrasonic flow probe (Transonic Systems Inc., Ithaca, N.Y., USA) around the femoral artery and to cannulate the femoral vein for blood sampling. Arterial blood gases were analysed on an ABL300/OSM3 system (Radiometer, Copenhagen, Denmark). […] The column eluate was mixed with ninhydrin reagent for amino acid detection. […] Blood glucose was analysed on a Reflolux® II (Boehringer Mannheim, Germany), using the glucose-oxidase/peroxidase reaction. Arterial and hepatic venous blood was drawn for calculations of splanchnic blood flow. […] The mean value of at least three measurements was adopted. […] Femoral artery plasma flow was calculated as blood flow (1-EVF). The turnover of amino acids, ammonium and urea were calculated as plasma flow times the arterio-venous plasma concentration difference with negative values indicating release and positive values uptake. After anaesthesia and surgical preparation the piglets were allowed a stabilisation period of one hour and randomly assigned to either Group 1 or Group 2.

splanchnic area = test: splanchnic turnover (plasma flow times arterio-venous difference; negative = release, positive = uptake); assay type: in vivo, piglets
Method: as §1, with “Sweden). Ventilation was maintained at 25 breaths per minute with a positive end-expiratory pressure of 5 cm of H2O.” for “Sweden).”, “adopted. Calculation of splanchnic blood flow was carried out according to the constant dye infusion technique (10). […] Splanchnic plasma flow was calculated according to a formula derived from Fick's principle: [formula]” for “adopted.”

[1] = system: anaesthetised piglet model; test: blood gas and hemodynamic variables in anaesthetised piglets during i.v. infusion; assay type: in vivo
Method: Food was withheld from the animals for twelve hours prior to the experiment, but they had free access to water. […] In addition, all animals were given an intravenous bolus of morphine 1 mg·kg^-1 and, following tracheotomy, pancuronium bromide 0.3 mg·kg^-1. […] After the last measurements, still under anaesthesia, the animals were killed with an overdose of potassium chloride. After induction of anaesthesia the animals were tracheotomised and ventilated through an 8 mm endotracheal tube (Mallincrodt Laboratories, Athlone, Ireland) with a Servo ventilator […] ([…], Solna, Sweden). Ventilation was maintained at 25 breaths per minute with a positive end-expiratory pressure of 5 cm of H2O. […] The body temperature was kept stable by means of a thermostat controlled heating pad and warmed intravenous infusions. […] Arterial blood gases were analysed on an ABL300/OSM3 system (Radiometer, Copenhagen, Denmark). […] Blood glucose was analysed on a Reflolux® II (Boehringer Mannheim, Germany), using the glucose-oxidase/peroxidase reaction. […] Splanchnic plasma flow was calculated according to a formula derived from Fick's principle: [formula] […] Femoral artery plasma flow was calculated as blood flow (1-EVF). The turnover of amino acids, ammonium and urea were calculated as plasma flow times the arterio-venous plasma concentration difference with negative values indicating release and positive values uptake. […]

## O=C(O)CCC(=O)C(=O)O [α-KGA, α-ketoglutaric acid]
Hind leg skeletal muscle
  Alanine turnover, hind leg: -0.20 ± 0.09 µmol/min/kg
  Arginine turnover, hind leg: 0.03 ± 0.02 µmol/min/kg
  FE (%)-NH4^+, hind leg: 5 ± 7%
  Glutamate turnover, hind leg: 0.25 ± 0.06 µmol/min/kg
  Glutamine turnover, hind leg: -0.09 ± 0.07 µmol/min/kg
  NH4^+ turnover, hind leg: 0.01 ± 0.02 µmol/min/kg
  Total AA turnover, hind leg: -0.36 ± 0.64 µmol/min/kg
  Urea turnover, hind leg: -0.2 ± 0.4 µmol/min/kg
Splanchnic area
  Alanine turnover, splanchinc: 4.11 ± 0.97 µmol/min/kg
  Arginine turnover, splanchinc: 0.26 ± 0.22 µmol/min/kg
  Glutamate turnover, splanchinc: -5.83 ± 0.61 µmol/min/kg
  Glutamine turnover, splanchinc: 2.14 ± 0.31 µmol/min/kg
  NH4^+ turnover, splanchinc: 0.50 ± 0.21 µmol/min/kg
  Total AA turnover, splanchinc: 6.18 ± 2.26 µmol/min/kg
  Urea turnover, splanchinc: -4.0 ± 1.2 µmol/min/kg
[1]
  Leg blood flow: 6.0 ± 0.5 a ml · min^−1 · kg^−1
  Spl. blood flow: 49 ± 6 mL/min/kg
